Molecular target: murine SR-BI (Mus musculus, UniProt Q61009)
Experiment: Uptake of DiI from DiI-HDL by ldlA[mSR-BI] cells (high throughput screen and concentration dependence)
Assay type: cell-based

Protein sequences, listed by entry. Tags and fused reporters are not part of them. Lines headed by an entry give the natural chain unless they say otherwise; changes in a name come on top.
UniProt Q61009: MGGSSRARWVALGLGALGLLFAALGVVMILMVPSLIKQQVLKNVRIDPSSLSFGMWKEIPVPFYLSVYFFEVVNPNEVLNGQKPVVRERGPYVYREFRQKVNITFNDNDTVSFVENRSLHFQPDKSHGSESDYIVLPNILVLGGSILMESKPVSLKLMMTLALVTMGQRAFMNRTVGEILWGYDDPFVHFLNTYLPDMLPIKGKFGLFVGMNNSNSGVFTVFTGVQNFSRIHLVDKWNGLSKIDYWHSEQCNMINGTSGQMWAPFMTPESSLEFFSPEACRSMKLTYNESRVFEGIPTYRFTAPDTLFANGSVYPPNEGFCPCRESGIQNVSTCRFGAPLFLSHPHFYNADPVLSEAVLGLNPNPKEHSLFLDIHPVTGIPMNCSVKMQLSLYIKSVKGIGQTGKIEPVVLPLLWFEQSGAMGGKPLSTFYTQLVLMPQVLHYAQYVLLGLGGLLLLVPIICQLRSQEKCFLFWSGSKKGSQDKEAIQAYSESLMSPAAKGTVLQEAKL

O=C(Nc1ccc(Cl)c([N+](=O)[O-])c1)c1ccc([N+](=O)[O-])cc1[N+](=O)[O-]
ENDOHDL Test 1 (Test 1): 0.58 | ENDOHDL Test 2 (Test 2): 0.6
